Reference: PubChem BioAssay AID871 (The Scripps Research Institute Molecular Screening Center, 2007)
This is a selection; strong and weak results do not stand in their true shares. Some results for these compounds are left out of this collection, so the calls shown say nothing about other tests. Calls of active or inactive are those of the source.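 How the source made its calls: active means activation above the screen-wide mean of compound activation plus 3 SD (cut at about 130% in these data); inactive means the rest.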

test: enhancers of STAT3 transcriptional signaling – U3A cells, luciferase, luminescence, MLSCN library, primary screen (AID 871); conditions: IL-6 STAT3-luciferase reporter, at 5.6 µM, active compounds read high, 100% = signal with IL-6 EC80 alone;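 further: 0% = background luminescence of wells with medium and substrate only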
Outline: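 Test system: Human STAT1-deficient U3A cells with stable STAT3-luciferase reporter | Also added: Interleukin-6, 33 ng/mL | Timing: Compound pre-incubation 1 h before IL-6, then 6 h stimulation at 37 °C | Technique: Luciferase reporter luminescence | Read-out: Percent of IL-6-only median luminescence | Benchmarks: IL-6-only wells as 100% reference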

SMILES | activation (% of control)
CN(C)c1cccc(C(=O)NCC2(N(C)C)CCCCC2)c1 | inactive: 99.7%
O=C(OC1CN2CCC1CC2)C(CO)(c1ccccc1)c1ccccc1 (centres undefined) | inactive: 99.2%
COc1cccc(C(=O)NCC2(N3CCCCC3)CCCCC2)c1 | inactive: 102%
C=CCN1CCN(CCOC(=O)C(O)(c2ccccc2)c2ccccc2)CC1 | inactive: 103%
CCN1CCCC(OC(=O)C2(O)c3ccccc3C=Cc3ccccc32)C1 (centres undefined) | inactive: 112%
Cc1ccccc1C(=O)NCC1(N2CCCCC2)CCCCC1 | inactive: 104%
CN(C)C1CCCC1OC(=O)C(O)(c1ccccc1)c1ccccc1 (centres undefined) | inactive: 97.4%
CC(C)N1C(=O)CC2(CCN(CCOC(=O)C(O)(c3ccccc3)c3ccccc3)CC2)C1=O | inactive: 103%
O=C(NCC1(N2CCCCC2)CCCCC1)c1cc([N+](=O)[O-])ccc1Cl | inactive: 99.8%
